# From article PMC3794980, “Identification of Conserved and HLA Promiscuous DENV3 T-Cell Epitopes” (PLoS Neglected Tropical Diseases, 2013)
# Amino acid sequences for entries named in this document (tags omitted). Residues count along the entry.
# UniProt P01911, 30-266: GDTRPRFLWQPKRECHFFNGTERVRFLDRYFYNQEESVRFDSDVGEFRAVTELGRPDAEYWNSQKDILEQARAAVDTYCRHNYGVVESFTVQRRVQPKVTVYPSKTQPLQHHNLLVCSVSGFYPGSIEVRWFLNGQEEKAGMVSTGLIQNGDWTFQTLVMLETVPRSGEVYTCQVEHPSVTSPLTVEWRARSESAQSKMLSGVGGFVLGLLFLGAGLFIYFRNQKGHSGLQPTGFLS
# Legend:
# [1] = system: HLA-A24 (A*2402) transgenic mice; experiment: IFN-γ ELISPOT of splenocytes from peptide-pool-immunized HLA-A24 transgenic mice; type: in vivo; details: for SFC±SD: IFN-γ ELISPOT, CD4-depleted splenocytes of HLA-A24 TgM immunized s.c. twice with peptide pool in Titermax gold, duplicate wells; for Functional avidity: minimum peptide concentration (10, 1, 0.1 µg/mL tested) that activated memory T-cells, HLA-A24 TgM
# [2] = biological target: HLA-DR DRB5*0101 (human (endogenous in EBV transformed cell lines)); experiment: radioligand binding
# [3] = biological target: HLA-DR DRB1*0101 (human (endogenous in EBV transformed cell lines)); experiment: radioligand binding
# [4] = biological target: HLA-DR DRB1*0404 (human (endogenous in EBV transformed cell lines)); experiment: radioligand binding
# HLA-A2:Ig fusion protein = experiment: fluorescence polarisation
# [5] = biological target: HLA-DR DRB1*1101 (human (endogenous in EBV transformed cell lines)); experiment: radioligand binding
# [6] = system: HLA-DR2 (DRA1*0101/I-Eα; DRB1*1501/I-Eβ) transgenic mice; details: representative IFN-γ ELISPOT data, CD8-depleted splenocytes of HLA-DR2 TgM
# [7] = system: CD8 depleted PBMCs from DR02 positive subjects; experiment: IFN-γ ELISPOT, memory T-cells of HLA-DR2 positive subjects with history of DENV3 infection; type: cell-based, human; details: n = 3 subjects immune to DENV3; CD8 depleted PBMC cultured a week with individual peptides, 10 µg/mL
# DRB1*1501 = DRB1*1501 (Homo sapiens, UniProt P01903+P01911); experiment: biochemical; type: binding
# [8] = system: HLA transgenic mice (A02, A24, B07, DR2, DR3 and DR4); experiment: Immunogenicity screen in six HLA transgenic mice strains (summary); type: in vivo; details: IFN-γ ELISPOT in six TgM strains; Negative = none
# [9] = system: HLA of the TgM (A02, A24, B07, DR2, DR3, DR4); experiment: HLA binding assays, summary of HLA affinity confirmed; design: species or system human; details: ND: non-determined
# [10] = system: HLA-DR4 (HLA-DRA1*0101; -DRB1*0401) transgenic mice; details: representative IFN-γ ELISPOT data, CD8-depleted splenocytes of HLA-DR4 TgM
# [11] = system: HLA-DR3 (DRA1*0101; -DRB1*0301) transgenic mice; details: representative IFN-γ ELISPOT data, CD8-depleted splenocytes of HLA-DR3 TgM
# [12] = system: 14 different HLA molecules (HLA class II); experiment: HLA class II binding assays, promiscuity over 14 HLA molecules (summary); details: HLA molecules among the 14 analyzed to which the peptide binds; binding affinity characterized by IC50 below 1000 nM
# [13] = system: HLA-A02 (A*0201) transgenic mice; experiment: IFN-γ ELISPOT of splenocytes from peptide-pool-immunized HLA-A02 transgenic mice; details: for SFC±SD: IFN-γ ELISPOT, CD4-depleted splenocytes of HLA-A02 TgM immunized s.c. twice with peptide pool in Titermax gold, duplicate wells; for Functional avidity: minimum peptide concentration (10, 1, 0.1 µg/mL tested) that activated memory T-cells, HLA-A02 TgM
# HLA = HLA affinity (if known) described in the literature; ref column References of Table 4 (refs 15, 16, 18, 20, 21, 23-29, 74); cited from earlier work
substance,measurement,setting,value
"AYTALFSGVSWVMKI [Env441–455, DENV3 Envelope 15-mer overlapping library peptide]",SFC±SD,[1],18±4 SFC per 1 million cells
same,Functional avidity,[1],10 µg/mL
DENV3 NS1 181-195 (peptide),IC50,[2],110 nM
same,IC50,[3],518 nM
same,IC50,[4],116 nM
DENV3 NS3 237-251 (peptide),IC50,[3],110 nM
DENV3 NS3_(399–407) (peptide),IC50,HLA-A2:Ig fusion protein,110 nM
DENV3 NS5 193-209 (peptide),IC50,[5],110 nM
GKTVWFVPSIKAGND [NS3_357–371],Transgenic mice DR2 (ELISPOT),[6],406+130 SFC per 1 million cells
same,memory T-cell response (IFN-γ ELISPOT) in HLA-DR2 positive subjects,[7],elicited T-cell response in one of the volunteers; also recorded: activated memory T-cells of at least one of the subjects analyzed
same,specificity for DR2 molecule by binding assay,DRB1*1501,confirmed
same,TGM (HLA transgenic mice in which the peptide was immunogenic),[8],DR2
same,Binding assay (HLA to which affinity was found),[9],DR2
HTLWSNGVLESDMII [NS1_229–243],Transgenic mice DR4 (ELISPOT),[10],214+15 SFC per 1 million cells
same,Transgenic mice DR3 (ELISPOT),[11],205+12 SFC per 1 million cells
same,HLA class II binders,[12],"DRB1*0301, DRB1*0401, DRB3*0101"
IVSSVNMVSRLLLNRFT [NS5_227–243],SFC±SD,[13],44±11 SFC per 1 million cells
same,Functional avidity,[13],10 µg/mL
"LNSKNTSMSFSCIAI [Env466–480, DENV3 Envelope 15-mer overlapping library peptide]",SFC±SD,[1],31±0 SFC per 1 million cells
same,Functional avidity,[1],1 µg/mL
"NREGKVVGLYGNGVV [NS3_141–155, DENV3 NS3 15-mer overlapping library peptide]",DENV3 Epitopes Reported: HLA affinity,HLA,NS3_141–155 ([…])/DRB1*1501
same,TGM (HLA transgenic mice in which the peptide was immunogenic),[8],Negative
TEYQKTKLNDWDFVV [NS3_393–407],SFC±SD,[13],20±5 SFC per 1 million cells
same,Functional avidity,[13],0.1 µg/mL

# Entries after “also recorded” stand apart in the source; their conditions may differ.
